This passage reports Tmax results from ChEMBL document CHEMBL3832038.

Molecules are shown by their SMILES. Only a part of the results on these compounds is given; other tests are left out.

As a reminder, the Tmax is the time at which the peak concentration occurs.

This data set relates to Homo sapiens. The data set is described as follows: Determination of pharmacokinetic pararmeters of Fentanyl following first 72-hour application of Fentanyl Transdermal System to healthy subjects and intravenous (IV) administration to surgical and hepatically impaired patients. The note with it: in vivo, topical_or_ocular.

As for `CCC(=O)N(c1ccccc1)C1CCN(CCc2ccccc2)CC1`, the Tmax is 32.8 h [middle of 4 runs].
